Each structure is given as a SMILES string. This is a selection; strong and weak results do not stand in their true shares. Some results for these compounds are left out of this collection, so the calls shown say nothing about other tests. The source made the active and inactive calls. No stated cut-off is given here; in the data, active means inhibition above about 50%; inactive means the rest.

These results are taken from PubChem BioAssay AID1020 (Sanford-Burnham Center for Chemical Genomics, 2008).

The experiment concerns glucose-6-phosphate dehydrogenase [Leuconostoc mesenteroides]. The experiment in a line: bacterial G6PDH enzyme inhibition, coupled readout – biochemical, Leuconostoc mesenteroides enzyme, counter-screen for G6PDH-coupled screening assays (AID 1020). Particulars: Purified L. mesenteroides G6PDH, diaphorase/resazurin coupled fluorescence, 45 min; at 5 µM; active compounds read high. Background: Counterscreens check selectivity or assay interference.
The inhibition is the relative decrease from the control value, in per cent. As to `COc1cccc(C(=O)NCC2(N3CCCCC3)CCCCC2)c1`, the inhibition is inactive: 7.6%. `O=C(OC1CN2CCC1CC2)C(CO)(c1ccccc1)c1ccccc1` (centres undefined): the inhibition was inactive: 8.6%. Consider `CN(C)c1cccc(C(=O)NCC2(N(C)C)CCCCC2)c1`, for which the inhibition is inactive: 4.7%. The result for `O=C(NCC1(N2CCCCC2)CCCCC1)c1cc([N+](=O)[O-])ccc1Cl` reads inactive: 3.3%; that for `CC(C)N1C(=O)CC2(CCN(CCOC(=O)C(O)(c3ccccc3)c3ccccc3)CC2)C1=O`, inactive: -0.9%; that for `Cc1ccccc1C(=O)NCC1(N2CCCCC2)CCCCC1`, inactive: 0.3%. For `CN(C)C1CCCC1OC(=O)C(O)(c1ccccc1)c1ccccc1` (centres undefined), the inhibition was inactive: 19.8%. Take `C=CCN1CCN(CCOC(=O)C(O)(c2ccccc2)c2ccccc2)CC1`: the inhibition is inactive: 8.9%. With `CCN1CCCC(OC(=O)C2(O)c3ccccc3C=Cc3ccccc32)C1` (centres undefined), the inhibition is inactive: 9.3%.
